## Ab-14 heavy chain CDR variants: yeast mating affinities

Binding partner: SARS-CoV-2 spike HR2 peptide, sequence PDVDLGDISGINAS.

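The starting antibody came from a phage panning campaign against this peptide. In library AAYL49, one, two or three CDR residues were substituted; doubles and triples were drawn at random. The assay is AlphaSeq: two haploid yeast populations carry antibody and antigen on their surface. After mating in shaken culture at 30 °C for 16 h, diploids were selected and their barcode pairs sequenced. The ratio of observed to expected reads was calibrated, replicate by replicate, on BCL2-family standards whose Kd was known from biolayer interferometry. The assay was run in three technical replicates.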

Parent: Ab-14, a human scFv built as VH, three GGGGS repeats, VL. Only the CDRs of the heavy chain vary.
VH: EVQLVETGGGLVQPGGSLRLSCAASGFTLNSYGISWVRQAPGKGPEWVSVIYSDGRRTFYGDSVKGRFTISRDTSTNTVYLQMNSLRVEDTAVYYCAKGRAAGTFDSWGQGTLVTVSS
VL: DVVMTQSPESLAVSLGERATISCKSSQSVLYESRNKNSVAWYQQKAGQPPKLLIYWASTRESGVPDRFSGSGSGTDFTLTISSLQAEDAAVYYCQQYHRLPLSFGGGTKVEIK

Variants are written as CDR1, CDR2 and CDR3 of the heavy chain (limits as in the source). Parent: GFTLNSYGIS, VIYSDGRRTFYGDSVK, GRAAGTFDS. Values are log10 of the apparent Kd in nM; lower means stronger binding. Replicates are averaged; those with no signal do not enter the mean. "n.d." marks a missing value. The strain was present, yet no cells mated with the target were sequenced in that replicate, which points to weak or no binding. Nonspecific signal, from three strains lacking the peptide, appeared in 15% of pairings of library AAYL49, centred on 4.06 (5% of these signals below 2.83); values are not corrected for it. The control count says in how many pairings with the empty strains this scFv gave a signal, with their mean in brackets.

| CDR-H1 | CDR-H2 | CDR-H3 | log10 Kd, replicates | mean, log10 nM | empty controls |
|---|---|---|---|---|---|
| GFTLNSYGIS | VAYSDGRRTFYGDSVK | GRAAGTFDS | 3.31 n.d. 3.00 | 3.16 | 0/9 |
| GFTLNSYGIS | VIYSDGRRTFYRDSVK | GRAAGTFQD | n.d. 2.71 n.d. | 2.71 | 0/9 |
| GFTLFQYGIS | VIYSDGRRTFYGDSVK | GRAAGTFDK | 0.96 0.89 0.81 | 0.89 | 2/9 (3.52) |
| GFTLGSYGIS | VINSDGRRTFYGDSVT | GRAAGTFDS | n.d. n.d. n.d. | n.d. | 0/9 |
| GFYLNSYGIS | FIYSDGRRTFYGDFVK | GRAAGTFDS | n.d. n.d. 4.31 | 4.31 | 2/9 (3.04) |
| GNTLNSYDIS | VIYSDGRRTFYGDSVC | GRAAGTFDS | 5.88 4.52 4.94 | 5.11 | 6/9 (4.90) |
| GFELNSYGIS | VIYSDGRRTFYGDDVK | GRAKGTFDS | n.d. n.d. 4.10 | 4.10 | 6/9 (3.48) |
| GFTLNMYFIS | VIYSDGRRTFYYDSVK | GRAAGTFDS | n.d. 3.41 n.d. | 3.41 | 0/9 |
| GFTLNSIGIS | VIYSDGRRTEYGDSVK | GRAAGTFDS | 3.78 4.14 4.05 | 3.99 | 5/9 (4.26) |
| GFTLNVYGIS | AIYSDGRRTFYGDSVK | GRAAGTFDS | n.d. n.d. n.d. | n.d. | 0/9 |
| GFTWNSYGNS | VIYSDGRRRFYGDSVK | GRAAGTFDS | n.d. n.d. n.d. | n.d. | 0/9 |
| GFTLNSRGIS | VIYSDERRTFYGDSVK | GRAAWTFDS | n.d. n.d. n.d. | n.d. | 0/9 |
| GFTLNSYGIS | PIYSDGRRTFYGDSVK | GRAAGVFDS | n.d. n.d. n.d. | n.d. | 0/9 |
| GFTRNSYGIS | VIYSDGRRTFYGDSVK | GRAPGTFDS | n.d. n.d. n.d. | n.d. | 0/9 |
| GFTLNSYGIS | VIYSDGRRLFYFDSVK | GRKAGTFDS | n.d. 3.56 4.03 | 3.79 | 2/9 (4.20) |
| GFTLNSYGWS | VIYSDGRRTFAGDSVK | GRAPGTFDS | n.d. n.d. n.d. | n.d. | 2/9 (4.51) |
| GFTLNSWPIG | VIYSDGRRTFYGDSVK | GRAAGTFDS | 5.66 n.d. n.d. | 5.66 | 3/9 (3.59) |
| GFTLNSYGIS | VIYSDGRETFYGDSVK | GVAAGYFDS | n.d. n.d. 4.93 | 4.93 | 1/9 (4.12) |
| AFTLNSYGIS | VIYSDGRRTFYGDSSK | GRAAGTFQS | n.d. n.d. n.d. | n.d. | 1/9 (2.88) |
| GFTLNSYGIS | VIYSDGRRTFMGDSVK | GRCAGTFDS | n.d. n.d. n.d. | n.d. | 0/9 |
| GFTLNSYGIS | WIYSDGRRTTYGDSVY | GRAAGTFDS | n.d. n.d. n.d. | n.d. | 1/9 (4.19) |
| GFTLNSYGDS | VIYSDGRRMFYGDSVK | GRAAGFFDS | n.d. n.d. n.d. | n.d. | 1/9 (4.99) |
| GFTGNSYGIS | VIYSDGRRTFYGDEVK | DRAAGTFDS | n.d. n.d. n.d. | n.d. | 1/9 (4.46) |
| GFTLNSYGIS | VLYSDGRRTFYGDSIK | GRAAGTVDS | 3.81 n.d. 4.09 | 3.95 | 4/9 (4.34) |
| GFTLNSYGIS | QIYSDGRWTFYGDSVK | NRAAGTFDS | n.d. n.d. n.d. | n.d. | 0/9 |
| KFTLPSYGIS | VIYSDGVRTFYGDSVK | GRAAGTFDS | 4.05 3.22 n.d. | 3.64 | 3/9 (3.96) |
| GFTLCSYGIS | VIYSDGRRTFVGDSVK | GRAAGTFDA | n.d. n.d. 2.98 | 2.98 | 0/9 |
| GFTLNSYGIS | VIYSDGRRTFYHDSCK | GRAAGTNDS | 2.09 1.79 1.68 | 1.85 | 0/9 |
| GFTLNSYGIS | VIYSDGRRTFYGDSVK | GRQADIFDS | 4.19 n.d. n.d. | 4.19 | 4/9 (4.31) |
| GFTLNSYGIS | VIFSDGRRTFYKDSVK | GRAAGTFDS | 1.31 1.35 1.27 | 1.31 | 4/9 (4.27) |
| GFTLNSYGKS | DVYSDGRRTFYGDSVK | GRAAGTFDS | 6.00 n.d. n.d. | 6.00 | 0/9 |
| GLTLNSYGIS | VIYFDGRRTLYGDSVK | GRAAGTFDS | n.d. 2.16 n.d. | 2.16 | 1/9 (3.61) |
| GFTLNSYGIS | VIYSDGRRTFYGDSVK | WPANGTFDS | 3.91 n.d. n.d. | 3.91 | 3/9 (4.02) |
| GFTLNSYGIS | VISSDGRSTFYGDSRK | GRAAGTFDS | n.d. n.d. n.d. | n.d. | 0/9 |
| GFTLNSYGYV | VIYSDGRRTFYGDSVK | GVAAGTFDS | n.d. n.d. n.d. | n.d. | 0/9 |
| GFTLNSYGIS | VIYSDERRTFYGDKVK | GRAAGLFDS | n.d. 3.55 3.48 | 3.51 | 0/9 |
| GFTLNSYLIS | VIYSDGRRTFYGDSVK | FRAAGTFIS | n.d. n.d. n.d. | n.d. | 3/9 (4.48) |
| GFTLNSYGIS | VIYYDGRRTFYGDSVK | GRAATTFFS | n.d. n.d. n.d. | n.d. | 0/9 |
| KFTLNSYGIS | VIYSHGRRTFMGDSVK | GRAAGTFDS | 5.70 n.d. n.d. | 5.70 | 3/9 (3.71) |
| GFTLNSSGHS | VIYSDGRRTFYGDSVH | GRAAGTFDS | n.d. n.d. n.d. | n.d. | 0/9 |

7 of these entries, quoted again:

{"CDR-H1": "GFYLNSYGIS", "CDR-H2": "FIYSDGRRTFYGDFVK", "CDR-H3": "GRAAGTFDS", "log10 Kd, replicates": "n.d. n.d. 4.31", "mean, log10 nM": "4.31", "empty controls": "2/9 (3.04)"}
{"CDR-H1": "GFTLNSYGIS", "CDR-H2": "VIYYDGRRTFYGDSVK", "CDR-H3": "GRAATTFFS", "log10 Kd, replicates": "n.d. n.d. n.d.", "mean, log10 nM": "n.d.", "empty controls": "0/9"}
{"CDR-H1": "GFTLNSYGIS", "CDR-H2": "VIYSDGRRTFYHDSCK", "CDR-H3": "GRAAGTNDS", "log10 Kd, replicates": "2.09 1.79 1.68", "mean, log10 nM": "1.85", "empty controls": "0/9"}
{"CDR-H1": "GFTLNVYGIS", "CDR-H2": "AIYSDGRRTFYGDSVK", "CDR-H3": "GRAAGTFDS", "log10 Kd, replicates": "n.d. n.d. n.d.", "mean, log10 nM": "n.d.", "empty controls": "0/9"}
{"CDR-H1": "GFTLNSYGIS", "CDR-H2": "VIYSDGRRTFMGDSVK", "CDR-H3": "GRCAGTFDS", "log10 Kd, replicates": "n.d. n.d. n.d.", "mean, log10 nM": "n.d.", "empty controls": "0/9"}
{"CDR-H1": "GFTLNSYGIS", "CDR-H2": "VIYSDGRRLFYFDSVK", "CDR-H3": "GRKAGTFDS", "log10 Kd, replicates": "n.d. 3.56 4.03", "mean, log10 nM": "3.79", "empty controls": "2/9 (4.20)"}
{"CDR-H1": "GFTLNSYGKS", "CDR-H2": "DVYSDGRRTFYGDSVK", "CDR-H3": "GRAAGTFDS", "log10 Kd, replicates": "6.00 n.d. n.d.", "mean, log10 nM": "6.00", "empty controls": "0/9"}

For reference, the parent read 0.65 as the reference entry and 4.11 (one replicate of three) as a member of this library.

Data: MIT Lincoln Laboratory AlphaSeq set, Engelhart et al. 2022, doi:10.1038/s41597-022-01779-4, as distributed in FLAb.